# Measurements published in ChEMBL document CHEMBL2311294, “Design, synthesis and bioevalution of novel benzamides derivatives as HDAC inhibitors” (Bioorg Med Chem Lett, 2013).
# Chains of the proteins cited; added tags and fusions are not shown.
# UniProt Q13547, whole entry: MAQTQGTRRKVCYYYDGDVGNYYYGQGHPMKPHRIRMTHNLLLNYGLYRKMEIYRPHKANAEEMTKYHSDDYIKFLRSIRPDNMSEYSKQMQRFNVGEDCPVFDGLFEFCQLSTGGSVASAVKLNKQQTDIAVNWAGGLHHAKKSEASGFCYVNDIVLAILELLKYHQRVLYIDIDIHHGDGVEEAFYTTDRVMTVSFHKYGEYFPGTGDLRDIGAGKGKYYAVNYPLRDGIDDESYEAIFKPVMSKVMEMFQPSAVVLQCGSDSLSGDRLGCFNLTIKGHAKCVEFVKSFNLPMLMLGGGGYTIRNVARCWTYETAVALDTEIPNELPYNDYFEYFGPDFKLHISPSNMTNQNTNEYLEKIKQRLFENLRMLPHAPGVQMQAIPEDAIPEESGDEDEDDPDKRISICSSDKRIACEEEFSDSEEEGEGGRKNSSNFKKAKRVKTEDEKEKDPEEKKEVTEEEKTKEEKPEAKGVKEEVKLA
# Target: Histone deacetylase 1 (Homo sapiens, UniProt Q13547)
# Test: Ratio of MGCD0103 IC50 to compound IC50 for HDAC1 (unknown origin)
smiles,measurement,value
Nc1ccccc1NC(=O)c1ccc(CNc2nccc(-c3cnc4ccccn34)n2)cc1,Ratio IC50,3
